The numbers were not newly measured in patent US20230181442A1, “METHOD FOR DYEING KERATIN MATERIAL, COMPRISING THE USE OF AN ORGANOSILICON COMPOUND, HYALURONIC ACID (SALT), A DYEING COMPOUND AND A POST-TREATMENT AGENT” (Henkel AG & Co. KGaA, priority 2020, published 2023), which cites them from elsewhere.

For this data set the following is noted: 25° C.

As to “3,4,5,6-tetrachloro-2-(1,4,5,8-tetrabromo-6-hydroxy-3-oxoxanthen-9-yl)benzoic acid [Acid Red 92]”, the solubility in water entry is recorded as “greater than 10 g/L”.
